From PMC13266999, “Designing Antibiotics with Inherent Resistance to Efflux as a Strategy to Revive Discovery against Multidrug-Resistant Pathogens” (Journal of Medicinal Chemistry, 2026)

Assay: Pharmacokinetics
Settings: male, ICR (CD-1), mouse, plasma, po, 20 mg/kg

In the case of `C[C@H]1COc2c(N3CCN(C)CC3)c(F)cc3c(=O)c(C(=O)O)cn1c23` [Levofloxacin, (S)-9-Fluoro-3-methyl-10-(4-methylpiperazin-1-yl)-7-oxo-2,3-dihydro-7H-[1,4]oxazino[2,3,4-ij]quinoline-6-carboxylic acid, reference compound], the bioavailability was 40.7%.
